Measurements reported in patent US10428024B2, “Piperidinyl derivatives” (MERCK PATENT GMBH, priority 2016, dated 2019).

Target: PDHK2 (Homo sapiens (Human), UniProt Q15119)
Assay: Biochemical activity testing of PDHK2: PDC inactivation assay
Details: read-out: Inhibition: IC50 (PDHK2); prior-art compound of WO 2001/017942; unit inferred
From the text: Biochemical Activity Testing of PDHK2: PDC Inactivation Assay
The biochemical activity assay for PDHK2 is based on the inactivation of PDC through phosphorylation by PDHK2. The assay is run in two steps: the enzymatic PDHK2 reaction in which isolated PDC is phosphorylated by PDHK2 with ATP as co-substrate and the PDC activity assay in which pyruvate and NAD are converted to acetyl-CoA and NADH. The PDC activity correlates to the increase in NADH and thereby is detectable directly via the increasing fluorescence signal (Exc 340 nm, Em 450 nm). Inhibition of PDHK2 results in a lower phosphorylation status and thereby a less decrease in activity of PDC and a stronger increase in NADH fluorescence signal.
The PDC inactivation assay is performed in Greiner 384-well microtiter plates and is used for high throughput screen. […] The first fluorescence measurement is performed on a Perkin Elmer Envision (Exc 340 nm, Em 450 nm). […] Afterwards a second fluorescence measurement is performed and the PDC activity is calculated by the difference between both measurements. […] The inhibitory values (IC50) were determined using either the program Symyx Assay Explorer® or Condosseo® from GeneData.

SMILES: C[C@@](O)(C(=O)N1CCC(NC(=O)c2ccc(C#N)cc2)CC1)C(F)(F)F
- IC50: 9.7 µM
